In brackets after ≈: the same amount, converted by molar mass.
Tests used:
Assay type in all cases: cell-based
[1] = test system: Strpetococcus faecalis A9612; conditions: nutrient agar, 10^4 CFU/ml
[2] = test system: Pseudomonas aeruginosa A9930; conditions: nutrient agar, 10^4 CFU/ml
[3] = test system: Staphylococcus epidermidis A22152; conditions: nutrient agar, 10^4 CFU/ml
[4] = test system: Klebsiella pnuemonia D-11; conditions: D11, nutrient agar, 10^4 CFU/ml
[5] = test system: Proteus mirabilis A9554; conditions: nutrient agar, 10^4 CFU/ml
[6] = test system: Morganella morganii A9553; conditions: nutrient agar, 10^4 CFU/ml

What does the source list for CC1(C)S[C@@H]2[C@H](NC(=O)[C@H](N)c3ccccc3)C(=O)N2[C@H]1C(=O)O [Ampicillin, reference compound]?
MIC [1]: 0.4 µg/mL (≈ 1.14 µM); MIC [2]: > 100 µg/mL; MIC [3]: 0.4 µg/mL (≈ 1.14 µM); MIC [4]: 0.8 µg/mL (≈ 2.29 µM); MIC [5]: 0.4 µg/mL (≈ 1.14 µM); MIC [6]: > 100 µg/mL
